Values quoted from earlier work in patent publication US6498171B2, “Hydroxyomeprazole compositions” (Sepracor Inc., priority 1998, dated 2002).

By UniProt entry, the sequences of proteins in these tests, tags left out.
UniProt P33261, whole entry: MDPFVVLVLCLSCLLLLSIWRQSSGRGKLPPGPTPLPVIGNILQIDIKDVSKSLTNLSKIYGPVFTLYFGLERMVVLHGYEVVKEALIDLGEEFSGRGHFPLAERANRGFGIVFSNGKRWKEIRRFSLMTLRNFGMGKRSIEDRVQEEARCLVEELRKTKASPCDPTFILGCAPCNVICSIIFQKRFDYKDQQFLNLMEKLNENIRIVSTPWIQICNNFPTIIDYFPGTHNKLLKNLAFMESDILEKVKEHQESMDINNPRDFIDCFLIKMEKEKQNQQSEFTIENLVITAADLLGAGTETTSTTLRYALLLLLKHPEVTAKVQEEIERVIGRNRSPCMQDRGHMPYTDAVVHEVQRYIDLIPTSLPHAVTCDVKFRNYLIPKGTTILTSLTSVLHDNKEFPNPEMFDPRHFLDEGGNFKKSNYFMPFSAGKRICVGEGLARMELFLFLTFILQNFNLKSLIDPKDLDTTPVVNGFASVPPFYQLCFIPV

Target: CYP 2C19 (Homo sapiens, UniProt P33261)

| hydroxylation by CYP 2C19 | Compound |
| --- | --- |
| rapidly hydroxylated | COc1ccc2nc([S+]([O-])Cc3ncc(C)c(OC)c3C)[nH]c2c1 (single isomer, unassigned; (+)) [(+)-omeprazole] |
| is not | COc1ccc2[nH]c([S+]([O-])Cc3ncc(C)c(OC)c3C)nc2c1 (stereo not drawn) [(−)] |
